From patent US9045498B2, “Hexahydropyrano[3,4-d][1,3]thiazin-2-amine compounds” (Pfizer Inc., priority 2012, dated 2015) come the findings set out here.

By UniProt entry, the sequences of proteins in these tests, tags left out. Residues count along the entry.
UniProt P56817, 46-457: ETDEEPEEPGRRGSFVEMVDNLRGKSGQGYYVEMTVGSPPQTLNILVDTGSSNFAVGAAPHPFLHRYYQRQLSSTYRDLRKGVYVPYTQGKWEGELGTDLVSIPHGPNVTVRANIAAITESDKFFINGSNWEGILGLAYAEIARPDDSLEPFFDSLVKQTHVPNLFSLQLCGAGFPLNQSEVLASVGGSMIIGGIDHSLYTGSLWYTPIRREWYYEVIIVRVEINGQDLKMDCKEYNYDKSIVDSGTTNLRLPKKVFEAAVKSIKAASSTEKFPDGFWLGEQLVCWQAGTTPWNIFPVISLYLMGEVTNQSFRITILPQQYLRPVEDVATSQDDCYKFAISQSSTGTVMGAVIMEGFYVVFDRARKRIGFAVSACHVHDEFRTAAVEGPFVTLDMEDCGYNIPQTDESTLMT
UniProt Q9Y5Z0, 63-518: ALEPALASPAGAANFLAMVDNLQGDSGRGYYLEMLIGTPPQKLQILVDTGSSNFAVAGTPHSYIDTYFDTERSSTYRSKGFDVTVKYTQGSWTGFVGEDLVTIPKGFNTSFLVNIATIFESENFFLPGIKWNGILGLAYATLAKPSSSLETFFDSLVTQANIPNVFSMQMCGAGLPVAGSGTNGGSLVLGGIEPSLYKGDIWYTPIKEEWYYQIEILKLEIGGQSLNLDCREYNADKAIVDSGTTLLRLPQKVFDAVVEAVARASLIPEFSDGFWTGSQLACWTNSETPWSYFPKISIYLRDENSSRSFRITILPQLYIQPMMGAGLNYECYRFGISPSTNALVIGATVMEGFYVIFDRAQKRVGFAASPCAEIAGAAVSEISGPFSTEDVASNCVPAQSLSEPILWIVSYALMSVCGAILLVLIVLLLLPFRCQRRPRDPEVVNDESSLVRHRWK

One assay concerns the target BACE1 enzyme (Homo sapiens (Human), UniProt P56817). Kind of assay: BACE1 Cell-Free Assay (fluorescence polarization). The format is biochemical. The settings on record: geometric mean of 2-3 determinations; pH 4.5, 3 hours at 37° C. From the text:
This assay measures the inhibition of the beta-secretase enzyme as it cleaves a non-native peptide.
A synthetic APP substrate that can be cleaved by beta-secretase having N-terminal biotin and made fluorescent by the covalent attachment of Oregon Green at the Cys residue is used to assay beta-secretase activity in the presence or absence of the inhibitory compounds. […] The BACE1 enzyme is affinity purified material from conditioned media of CHO-K1 cells that have been transfected with a soluble BACE construct (BACE1deltaTM96His). Compounds are incubated in a ½ log dose response curve from a top concentration of 100 μM with BACE1 enzyme and the biotinylated fluorescent peptide in 384-well black plates (Thermo Scientific #4318). BACE1 is at a final concentration of 0.1 nM with a final concentration of peptide substrate of 150 nM in a reaction volume of 30 μL assay buffer (100 mM sodium acetate, pH 4.5 (brought to pH with acetic acid), and 0.001% Tween-20). Plates are covered and incubated for 3 hours at 37° C. […] After a 10 minute incubation at room temperature, plates are read on a PerkinElmer EnVision for fluorescence polarization (Ex485 nm/Em530 nm). The activity of the beta-secretase enzyme is detected by changes in the fluorescence polarization that occur when the substrate is cleaved by the enzyme.

The next assay concerns the target BACE2 enzyme (Homo sapiens (Human), UniProt Q9Y5Z0). Kind of assay: BACE2 Cell-free Assay (fluorescence polarization). The format is biochemical. Particulars: pH 4.5, 3 hours at 37° C.; number of determinations per footnote a, b, d. Here is the method: This assay measures the inhibition of the BACE2 enzyme as it cleaves a non-native peptide. A synthetic substrate that can be cleaved by BACE2 having N-terminal biotin and made fluorescent by the covalent attachment of Oregon Green at the Cys residue is used to assay BACE2 activity in the presence or absence of the inhibitory compounds. The substrate is Biotin-[…]-C(Oregon green)-KK-OH. The BACE2 enzyme is available from Enzo Life Sciences (Cat # BML-SE550). Compounds are incubated in a ½ log dose response curve from a top concentration of 100 μM with BACE2 enzyme and the biotinylated fluorescent peptide in 384-well black plates (Thermo Scientific #4318). BACE2 is at a final concentration of 2.5 nM with a final concentration of peptide substrate of 150 nM in a reaction volume of 30 μL assay buffer (100 mM sodium acetate, pH 4.5 (brought to pH with acetic acid), and 0.001% Tween-20). Plates are covered and incubated for 3 hours at 37° C. The reaction is stopped with the addition of 30 μL of 1.5 μM Streptavidin (Pierce, #21125). After a 10 minute incubation at room temperature, plates are read on a Perkin Elmer EnVision for fluorescence polarization (Ex485 nm/Em530 nm). The activity of the beta-secretase enzyme is detected by changes in the fluorescence polarization that occur when the substrate is cleaved by the enzyme.

Consider `N#Cc1cc([C@]23CO[C@@H](CF)C[C@H]2CSC(N)=N3)c(F)cc1F` [Example 4, 5-[(4aR,6R,8aS)-2-Amino-6-(fluoromethyl)-4,4a,5,6-tetrahydropyrano[3,4-d][1,3]thiazin-8a(8H)-yl]-2,4-difluorobenzonitrile], for which the IC50 (commonly the concentration that inhibits the measured activity by half) against BACE1 enzyme is 854 nM.
`COC[C@H]1C[C@H]2CSC(N)=N[C@@]2(c2cc(C#N)c(F)cc2F)CO1` [Example 5, 5-[(4aR,6R,8aS)-2-Amino-6-(methoxymethyl)-4,4a,5,6-tetrahydropyrano[3,4-d][1,3]thiazin-8a(8H)-yl]-2,4-difluorobenzonitrile] registered an IC50 on BACE1 enzyme of 320 nM.
As to `N#Cc1cc([C@]23CO[C@@H](COCc4ccccc4)C[C@H]2CSC(N)=N3)c(F)cc1F` [Example 2, 5-[(4aR,6R,8aS)-2-Amino-6-[(benzyloxy)methyl]-4,4a,5,6-tetrahydropyrano[3,4-d][1,3]thiazin-8a(8H)-yl]-2,4-difluorobenzonitrile], the IC50 against BACE2 enzyme was 2800 nM.
